In brackets after ≈: the same amount, converted by molar mass.
Key:
[1] = Parallel artificial membrane permeability assay (PAMPA); settings: passive permeability
BCRP = BCRP (Homo sapiens, UniProt Q9UNQ0); assay: BCRP efflux; settings: Table 9
P-glycoprotein (P-gp) = P-glycoprotein (P-gp) (Homo sapiens, UniProt P08183); assay: P-glycoprotein (P-gp) efflux; settings: Table 9
CYP3A4 = CYP3A4 (Homo sapiens, UniProt P08684); assay: CYP3A4 inhibition; settings: read-out: CYP3A4; Table 9

The chains behind the UniProt entries cited, without tags or fusion partners.
UniProt Q9UNQ0, whole entry: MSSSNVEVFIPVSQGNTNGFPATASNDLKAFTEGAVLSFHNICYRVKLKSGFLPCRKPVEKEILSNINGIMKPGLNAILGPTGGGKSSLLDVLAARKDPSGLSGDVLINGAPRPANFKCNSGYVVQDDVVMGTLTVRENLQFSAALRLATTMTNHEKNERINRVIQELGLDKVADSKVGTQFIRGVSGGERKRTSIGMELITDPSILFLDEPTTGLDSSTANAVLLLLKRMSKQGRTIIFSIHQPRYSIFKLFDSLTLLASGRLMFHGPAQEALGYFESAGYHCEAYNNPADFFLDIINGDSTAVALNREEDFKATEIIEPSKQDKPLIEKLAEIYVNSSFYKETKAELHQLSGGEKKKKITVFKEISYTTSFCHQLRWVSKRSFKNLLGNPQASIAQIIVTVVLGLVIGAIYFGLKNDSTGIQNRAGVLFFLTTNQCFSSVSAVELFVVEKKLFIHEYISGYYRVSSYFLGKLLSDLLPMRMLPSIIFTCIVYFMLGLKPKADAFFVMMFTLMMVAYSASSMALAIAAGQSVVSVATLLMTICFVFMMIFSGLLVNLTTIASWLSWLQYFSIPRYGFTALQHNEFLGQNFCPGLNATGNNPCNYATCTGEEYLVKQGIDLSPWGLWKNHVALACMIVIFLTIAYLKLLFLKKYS
UniProt P08183, whole entry: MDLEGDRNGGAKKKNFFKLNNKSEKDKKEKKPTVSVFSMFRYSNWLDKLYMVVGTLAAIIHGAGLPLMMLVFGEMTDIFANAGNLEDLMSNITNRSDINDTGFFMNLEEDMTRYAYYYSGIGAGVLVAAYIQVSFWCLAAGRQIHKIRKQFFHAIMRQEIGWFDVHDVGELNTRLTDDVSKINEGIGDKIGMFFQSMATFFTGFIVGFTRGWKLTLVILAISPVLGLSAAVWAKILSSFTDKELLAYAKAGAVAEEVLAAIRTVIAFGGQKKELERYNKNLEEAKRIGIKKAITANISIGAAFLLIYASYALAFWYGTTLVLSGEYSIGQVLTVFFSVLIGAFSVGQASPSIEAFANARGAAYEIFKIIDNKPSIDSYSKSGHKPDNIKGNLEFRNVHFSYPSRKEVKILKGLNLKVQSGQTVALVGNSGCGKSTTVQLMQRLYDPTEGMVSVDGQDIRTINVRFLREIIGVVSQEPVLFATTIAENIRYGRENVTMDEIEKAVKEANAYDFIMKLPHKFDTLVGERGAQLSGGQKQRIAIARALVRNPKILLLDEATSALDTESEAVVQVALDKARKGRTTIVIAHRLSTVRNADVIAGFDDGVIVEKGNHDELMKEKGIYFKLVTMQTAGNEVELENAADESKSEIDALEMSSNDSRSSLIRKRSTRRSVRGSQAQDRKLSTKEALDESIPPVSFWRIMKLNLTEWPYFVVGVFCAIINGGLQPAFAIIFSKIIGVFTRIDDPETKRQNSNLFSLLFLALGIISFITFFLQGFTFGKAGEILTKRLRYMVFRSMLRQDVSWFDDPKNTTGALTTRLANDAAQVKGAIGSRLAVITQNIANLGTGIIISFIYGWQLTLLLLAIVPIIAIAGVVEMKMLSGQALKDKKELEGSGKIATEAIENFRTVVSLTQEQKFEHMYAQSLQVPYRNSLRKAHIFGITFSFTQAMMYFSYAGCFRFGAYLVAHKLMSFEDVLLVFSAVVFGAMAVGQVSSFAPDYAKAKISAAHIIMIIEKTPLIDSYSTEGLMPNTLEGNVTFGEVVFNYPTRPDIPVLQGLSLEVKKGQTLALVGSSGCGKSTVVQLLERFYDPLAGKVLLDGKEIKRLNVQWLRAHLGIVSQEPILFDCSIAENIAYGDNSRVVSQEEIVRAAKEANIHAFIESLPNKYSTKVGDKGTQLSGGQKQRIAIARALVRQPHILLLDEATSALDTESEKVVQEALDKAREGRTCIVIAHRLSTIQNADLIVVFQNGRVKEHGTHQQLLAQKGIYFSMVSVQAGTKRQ
UniProt P08684, whole entry: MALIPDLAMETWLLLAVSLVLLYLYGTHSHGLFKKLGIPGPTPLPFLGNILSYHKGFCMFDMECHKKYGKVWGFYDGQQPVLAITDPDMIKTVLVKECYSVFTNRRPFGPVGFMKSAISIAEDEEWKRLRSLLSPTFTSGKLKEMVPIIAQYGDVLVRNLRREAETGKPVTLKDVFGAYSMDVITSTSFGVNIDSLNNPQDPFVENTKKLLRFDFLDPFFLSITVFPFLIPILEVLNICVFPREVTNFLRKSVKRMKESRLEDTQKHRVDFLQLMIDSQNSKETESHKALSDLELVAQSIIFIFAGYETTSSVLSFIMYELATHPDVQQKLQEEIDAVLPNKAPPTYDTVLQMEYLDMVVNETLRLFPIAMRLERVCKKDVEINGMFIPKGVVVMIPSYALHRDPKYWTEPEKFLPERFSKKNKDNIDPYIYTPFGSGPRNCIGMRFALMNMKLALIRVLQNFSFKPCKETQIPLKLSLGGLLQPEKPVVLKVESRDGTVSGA

Structure (SMILES)	PAMPA [1]	BCRP (BCRP)	Solubility (Solubility)	P-gp (P-glycoprotein (P-gp))	IC50 (CYP3A4)
CC[C@@H](C)n1ncn(-c2ccc(N3CCN(c4ccc(OC[C@@H]5CO[C@@](C)(c6ccc(Cl)cc6Cl)O5)cc4)CC3)cc2)c1=O	Poor	No	1.56 µM (≈ 0.996 µg/mL)	No	
CC[C@@H](C)n1ncn(-c2ccc(N3CCN(c4ccc(OC[C@@H]5CO[C@](C)(c6ccc(Cl)cc6Cl)O5)cc4)CC3)cc2)c1=O	Poor	No	0.8 µM (≈ 0.511 µg/mL)	No	> 20 µM

From patent publication US11390613B2, “Azole analogues and methods of use thereof” (UNIVERSITY OF CONNECTICUT, priority 2017, dated 2022)
